# Patent US12344618B2, “Heterotricyclic derivative compound and use of same” (HANMI PHARMACEUTICAL CO., LTD., priority 2019, dated 2025)
# Sequences of proteins named here, by UniProt entry; tags and fusion partners are left off.
# UniProt Q92800, whole entry: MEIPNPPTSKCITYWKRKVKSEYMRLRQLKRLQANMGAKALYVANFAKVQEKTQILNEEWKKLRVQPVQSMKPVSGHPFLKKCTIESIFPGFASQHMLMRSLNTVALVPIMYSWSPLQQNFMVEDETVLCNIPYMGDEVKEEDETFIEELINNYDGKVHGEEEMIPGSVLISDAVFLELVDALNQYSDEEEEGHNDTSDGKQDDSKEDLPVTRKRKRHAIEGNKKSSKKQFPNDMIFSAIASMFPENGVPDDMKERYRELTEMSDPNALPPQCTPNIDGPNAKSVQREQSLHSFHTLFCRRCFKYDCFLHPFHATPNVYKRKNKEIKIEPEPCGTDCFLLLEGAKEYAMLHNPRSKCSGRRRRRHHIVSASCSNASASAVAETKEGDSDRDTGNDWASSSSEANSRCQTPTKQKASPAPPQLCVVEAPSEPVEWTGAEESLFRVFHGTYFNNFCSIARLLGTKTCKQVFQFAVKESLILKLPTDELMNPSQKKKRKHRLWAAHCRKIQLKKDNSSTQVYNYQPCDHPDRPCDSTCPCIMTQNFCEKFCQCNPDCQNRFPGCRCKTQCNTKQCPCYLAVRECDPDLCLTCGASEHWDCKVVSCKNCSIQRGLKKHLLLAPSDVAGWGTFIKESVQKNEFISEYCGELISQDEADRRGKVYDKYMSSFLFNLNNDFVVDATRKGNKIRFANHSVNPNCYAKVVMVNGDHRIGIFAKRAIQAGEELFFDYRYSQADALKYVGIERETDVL
# Biological target: T1, EZH1 (Homo sapiens, UniProt Q92800)
# T1 construct: purchased Reaction Biology Corp. (contract assay)
# Test: Inhibitory activity against EZH1 methyltransferase (radiometric scintillation proximity assay);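 also: Read-out is methylation of a substrate peptide, captured on streptavidin-coated SPA beads and counted by scintillation, in Tris-HCl buffer at pH 8.0 with 1% DMSO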
# Format: biochemical
# Details: 2.3 nmol/L enzyme, 90 minutes, room temperature
row,IC50 [nM],SMILES
1,7 to 16,"Cc1cc(C)c(CN2CCc3c(Br)c4c(c(C)c3C2=O)OC(C)([C@H]2CC[C@H](N(C)C)CC2)O4)c(=O)[nH]1 (single isomer, unassigned) [Compound 49, 9-bromo-6-((4,6-dimethyl-2-oxo-1,2-dihydropyridin-3-yl)methyl)-2-(trans-4-(dimethylamino)cyclohexyl)-2,4-dimethyl-7,8-dihydro-[1,3]dioxolo[4,5-g]isoquinolin-5(6H)-one]"
2,> 1000,"Cc1cc(C)c(CN2CCc3c(Br)c4c(c(C)c3C2=O)OC(C)([C@H]2CC[C@H](N(C)C)CC2)O4)c(=O)[nH]1 (single isomer, unassigned) [Compound 50, 9-bromo-6-((4,6-dimethyl-2-oxo-1,2-dihydropyridin-3-yl)methyl)-2-(trans-4-(dimethylamino)cyclohexyl)-2,4-dimethyl-7,8-dihydro-[1,3]dioxolo[4,5-g]isoquinolin-5(6H)-one]"
3,2.6 to 40,"Cc1cc(C)c(CN2CCc3c(Br)c4c(c(C)c3C2=O)OC(C)([C@H]2CC[C@H](N(C)C)CC2)O4)c(=O)[nH]1 (stereo partly drawn) [Compound 48, 9-bromo-6-((4,6-dimethyl-2-oxo-1,2-dihydropyridin-3-yl)methyl)-2-(trans-4-(dimethylamino)cyclohexyl)-2,4-dimethyl-7,8-dihydro-[1,3]dioxolo[4,5-g]isoquinolin-5(6H)-one]"
